Data as given in patent publication US20110319274A1, “Identification of Compounds Modifying a Cellular Response” (Carlsberg A/S, priority 2004, published 2011).

Sequences of proteins named here, by UniProt entry; tags and fusion partners are left off.
UniProt P32245, whole entry: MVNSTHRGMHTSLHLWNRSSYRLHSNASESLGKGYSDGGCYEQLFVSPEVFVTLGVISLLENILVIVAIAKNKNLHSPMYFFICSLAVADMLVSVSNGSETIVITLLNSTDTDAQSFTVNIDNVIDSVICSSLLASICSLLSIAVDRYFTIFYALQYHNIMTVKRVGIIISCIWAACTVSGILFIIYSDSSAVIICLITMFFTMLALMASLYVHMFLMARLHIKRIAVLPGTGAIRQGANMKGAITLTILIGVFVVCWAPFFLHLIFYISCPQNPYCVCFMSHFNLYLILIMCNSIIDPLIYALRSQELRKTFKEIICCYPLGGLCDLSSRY

Biological target: T1, MC4R (melanocortin4 receptor) (Homo sapiens, UniProt P32245)
T1 construct: PCR amplified MC4R encoding DNA is introduced into the gateway Entry Vector (pENTR); expressed in transfected cells; host or cells: Hek293
Experiment: Gs coupled receptor (MC4R) agonist screening, Cre-YFP reporter assay detected using a fluorescence microscope
Format: cell-based
Conditions: HEK293 and U2OS cells expressing MC4; FIG. 13
Excerpt: A 732 bp of EYFP fragment from pd2EYFP-1 (Clontech Cat.#6912-1) is ligated to a 3.5 kb fragment from pCRE-d2EGFP (Clontech Cat #6034-1). Both fragments are excised from the two vectors by a common restriction enzyme digestion.
PCR amplified MC4R encoding DNA is introduced into the gateway Entry Vector (pENTR) by topoisomarase-mediated ligation. The DNA is subsequently recombined into Destination Vector pDEST12.2. (pDEST12.2MC4R)
Hek293 cells are co-transfected with pDEST1.2.2MC4R and Cre-YFP (using standard procedure for Fugene6 transfection) and cells are cultured on PEGA beads displaying adhesion peptide and respectively 1) Negative control (PEGA beads with adhesion peptide) and 2) Positive control (PEGA beads of example 2) by mixing appr. […] The level of CRE-YFP expression was detected using a Zeiss Axiovert 200M microscope equipped with appropriate filters for YFP detection (Excitation 500/20 nm, Dicroic 515 LP EM 535/30).
Hek293 cells were co-transfected with pDEST1.2.2MC4R and pCRE-d2EYFP and put under G418 selection for 3 weeks. Hereafter cells were FACSorted (Fluorescence Activated Bead sorted) for high YFP expression after stimulation with aMSH 100 nM and 0.4 uM TSA (Tricostatin A) for 20 hrs. […]
The LabTek one well chambered coverglass was placed on a Zeiss Axiovert 200 fluorescence microscope equipped with filters optimal for YFP fluorescence. […]

CRE-YFP transcription: induced CRE-YFP transcription
Substance: Ac-Ser-Tyr-Ser-Met-Glu-His-Phe-Arg-Trp-Gly-Lys-Pro-Val-Gly-OH [aMSH]
